{"source": "patent US6517856B1", "about": "“Insecticide resistance assay” (priority 1998, dated 2003)", "test_system": "H. virescens", "assay": "Feeding disruption assay for resistance to a carbamate insecticide", "format": "in vivo, Heliothis virescens", "settings": "1000 ppm in test diet", "data": [{"smiles": "CS/C(C)=N\\OC(=O)N(C)SN(C)C(=O)O/N=C(\\C)SC", "values": [{"measurement": "discrimination of resistant (Macon Ridge) and susceptible (Wake) strains by fecal pellet production", "result": "can be distinguished within hours"}]}]}
